Laboratory results reported in patent US20230355612A1 (SHANGHAI BOCIMED PHARMACEUTICAL CO., LTD., priority 2020, published 2023).

Experiment: Solubility comparison in media, shaken at 37° C. for 24 h, HPLC
Method: The mixtures were shaken at 37° C. for 24 h and filtered through 0.45 μm aqueous-phase filter membranes. The filtrates were collected and the solubility was determined by high performance liquid chromatography. pH3, pH4, pH5 and pH6 represent acetate buffer solutions, and pH7, pH7.4, pH8 and pH9 represent phosphate buffer solutions.

Substance: cariprazine sebacate
- Solubility (Water): >169.7 µg/mL
- Solubility (pH 3 acetate buffer): >152.7 µg/mL
- Solubility (pH 5 acetate buffer): <169.7 µg/mL
- Solubility (pH 7 phosphate buffer): <152.7 µg/mL
- Solubility (pH 9 phosphate buffer): <186.7 µg/mL
